Results published in patent US9663463B2, “3-azabicyclo[3.1.0]hexane derivative and use thereof for medical purpose” (priority 2013, dated 2017).
Counter-ions that a name gives are not always drawn.

Target: hERG (Homo sapiens (Human), UniProt Q12809)
Test: Safety margin against hERG inhibitory activity
Details: hERG IC50×1000/{concentration in plasma at ED50×(1−protein binding rate/100)}
Experimental: In order to compare the risks of extension of QT interval prolongation in the electrocardiogram among the test substances, the safety margins against the hERG inhibitory effect were calculated. […] Therefore, the following formula was used for calculating the safety margin, and the obtained values were described in Table 7. Safety margin against hERG inhibitory effect=IC50×1000/{concentration in plasma×(1−protein binding rate/100)}
IC50: the IC50 value in a hERG inhibition assay (μM)
Plasma concentration: the plasma concentration of test substance (nM) at the ED50 value in the test for evaluating the anti-pruritic effect in the morphine model
Protein binding rate: the protein binding rate (%) in the protein binding assay in murine serum

CC[C@]1(c2cccc(NS(=O)(=O)C3CC3)c2)[C@@H]2CN(CCCC3(OC)CCC(F)(F)CC3)C[C@@H]21 [Example 6-(b), N-(3-{(1R,5S,6r)-3-[3-(4,4-difluoro-1-methoxycyclohexyl)propyl]-6-ethyl-3-azabicyclo[3.1.0]hexan-6-yl}phenyl)cyclopropanesulfonamide hydrochloride] gave a Safety margin of 2130.
